Where two headings read alike, the source gives them in different places.
How the values were obtained:
[1] = target: T1, recombinant human IL-17A (human, UniProt Q16552, in part); test: cell-based or functional assay
[2] = target: T1, recombinant human IL-17A; test: cell-based or functional assay; remark: listed apart in the source
[3] = target: T1, recombinant human IL-17A; test: SPR (BIAcore T200), IL-17A coupled to CM5 chip, single-cycle kinetics
[4] = target: T1, recombinant human IL-17A; test: competition ELISA, IL-17A binding to coated IL-17RA-Fc
[5] = target: T1, recombinant human IL-17A; test: SPR (BIAcore T200), IL-17A coupled to CM5 chip, single-cycle kinetics; remark: listed apart in the source
[6] = target: T1, recombinant human IL-17A; test: competition ELISA, IL-17A binding to coated IL-17RA-Fc; remark: listed apart in the source

Protein sequences, listed by entry. Tags and fused reporters are not part of them. Residues count along the entry.
UniProt Q16552, 24-155: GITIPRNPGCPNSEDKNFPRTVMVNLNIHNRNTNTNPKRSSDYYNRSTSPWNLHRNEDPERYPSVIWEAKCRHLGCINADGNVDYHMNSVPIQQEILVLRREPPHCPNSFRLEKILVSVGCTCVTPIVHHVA

B1: Family 3 (clone 3.1) (VHH)
VHH: QVQLVQSGAEVKKPGASVKVSCKASGYTFTGYYMHWVRQAPGQGLEWMGWINPNSGGTNYAQKFQGRVTMTRDTSISTAYMELSRLRSDDTAVYYCASMDRDYYDTSGYFGWFDSWGQGTLVTVSS
notes: Human single VH domain from the naive in vitro library; also called parent Clone 3.1; VH 3.1.1
- Cell assay IC50 (nM), IL-17A-induced IL6 release from HT1080 [1]: > 1000 nM
- Cell assay IC50 (nM), IL-17A-induced IL6 release from HT1080 [2]: > 1000 nM
- Kd [3]: 173 nM
- koff [3]: 0.00594 s⁻¹
- kon [3]: 34300 M⁻¹ s⁻¹
- IC50 [4]: 230 nM
- Kd [5]: 173 nM
- koff [5]: 0.00594 s⁻¹
- kon [5]: 34300 M⁻¹ s⁻¹
- IC50 [6]: 230 nM

— patent publication US20200347127A1 (CRESCENDO BIOLOGICS, published 2020)
